Experimental data as given in patent publication EP2106802A1, “Modified peptides as synthetic vaccines in amyloid-associated disease” (SIGMA-TAU Industrie Farmaceutiche Riunite S.p.A., priority 2008, dated 2009).

Legend:
[1] = test system: T lymphocytes expressing CXCR5 in PBMCs of healthy donors; assay: CXCR5 expression in T-lymphocytes after peptide stimulation (flow cytometry); assay type: cell-based, human; settings: for Percentage of T-lymphocytes expressing CXCR5: peptides 5ug/ml, 4 days after third stimulation
Protocol: In order to evaluate the expression of a specific marker (CXCR5) in cultured […], the cells, 4 days after the third stimulation, were washed twice and stained with anti-CXCR5, in PBS supplemented with 0.5% FCS and 0.01%NaN3 at 4°C. After twenty minutes they were washed twice and analysed on FACSCanto flow cytometer (Becton Dickinson). The data were analyzed using FlowJo software (TreeStar, CA, USA).
Table 3. The CXCR5 expression measured as % of T lymphocytes expressing CXCR5 in PBMCs of healthy donors vs total lymphocytes (median, 1st and 3rd quartile) has been reported. Friedman Repeated Measures Analysis of Variance on Ranks has been performed. Column 1: number of different donors (Pz); column 2: the percentage of control (CTR) not challenged T lymphocytes expressing CXCR5; columns 3-12: the percentage of T lymphocytes expressing CXCR5 after the stimulation with different peptides.
CXCR5, a chemokine transmembrane receptor belonging to the CXC chemokine receptor family plays an essential role in B cell activation (Legler D.F., et al., J. Exp. Med., 1998, 187, 4, 655). The CXCR5 expression was measured as % of T-lymphocytes expressing CXCR5 versus total lymphocytes (median, 1st and 3rd quartile) and Friedman Repeated Measures Analysis of Variance on Ranks was performed.

In the case of “Seq.2: Aβ[1-16] fragment of the Aβ[1-42] sequence (DAEFRHDSGYEVHHQK)”, the “production of IFN-γ in challenged T-lymphocytes” value (IFN-γ) is reported as “statistically significative production of IFN-γ”, the “Percentage of T-lymphocytes expressing CXCR5, 1st and 3rd quartine” value ([1]; 1st and 3rd quartile of 10 donors) is reported as 9.9-44.0% and the “expression of CXCR5 with respect to CTR” value ([1]; T-lymphocytes, Friedman test, result in words) is reported as “statistically different expression of CXCR5 with respect to CTR”. For the same substance, the “Percentage of T-lymphocytes expressing CXCR5” value ([1]; donor Pz1) was 23.09%, the “Percentage of T-lymphocytes expressing CXCR5” value ([1]; donor Pz2) was 21.09% and the “Percentage of T-lymphocytes expressing CXCR5” value ([1]; donor Pz3) was 83.07%. The “Percentage of T-lymphocytes expressing CXCR5” value ([1]; donor Pz4) was 2.08%, the “Percentage of T-lymphocytes expressing CXCR5” value ([1]; donor Pz5) was 9,9% and the “Percentage of T-lymphocytes expressing CXCR5” value ([1]; donor Pz6) was 6,9%. For the same substance, the “Percentage of T-lymphocytes expressing CXCR5” value ([1]; donor Pz7) was 14,8%, the “Percentage of T-lymphocytes expressing CXCR5” value ([1]; donor Pz8) was 44.00% and the “Percentage of T-lymphocytes expressing CXCR5” value ([1]; donor Pz9) was 46.05%. For the same substance, the “Percentage of T-lymphocytes expressing CXCR5, Median” value ([1]; median of 10 donors, * P = <0,001 (Friedman)) was 22.9* %.
